Laboratory results published in patent US20100029554A1, “Composition and Methods for Treatment of Congestive Heart Failure” (Amylin Pharmaceuticals, Inc., priority 2006, published 2010).
Blank lines part the entries; values can stand above or below the binder they belong to.

Target: T1, GLP-1 receptor, endogenous in RINm5f cells (rat (RIN-m5F are called rat pancreas insulinoma cells)), P32301
T1 chain: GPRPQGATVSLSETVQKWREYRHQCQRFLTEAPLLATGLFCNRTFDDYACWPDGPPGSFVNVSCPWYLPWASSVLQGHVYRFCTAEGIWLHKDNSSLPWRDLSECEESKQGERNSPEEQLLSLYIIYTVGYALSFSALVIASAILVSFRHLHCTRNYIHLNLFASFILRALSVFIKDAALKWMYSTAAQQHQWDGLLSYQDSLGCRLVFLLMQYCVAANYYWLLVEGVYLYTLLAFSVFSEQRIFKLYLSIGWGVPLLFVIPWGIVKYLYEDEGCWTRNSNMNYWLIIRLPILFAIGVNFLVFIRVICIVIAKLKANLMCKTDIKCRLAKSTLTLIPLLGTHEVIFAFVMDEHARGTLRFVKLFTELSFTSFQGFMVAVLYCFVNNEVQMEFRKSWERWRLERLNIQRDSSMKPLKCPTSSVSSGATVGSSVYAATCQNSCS
Assay: 125I-GLP-1 displacement, RINm5f membranes

IC50: 0.087 nM
B1: Cmpd 4844, GLP-1-(7-37)-GG(S)-2,6-diamino-1-(thiazolidin-3-y1)hexan-1-one amide (peptide)
peptide: HAEGTFTSDVSSYLEGQAAKEFIAWLVKGRGGG
modifications: not checked

IC50: 0.1 nM
B2: Cmpd 4845, GLP-1-(7-37)-GG-(S)-2,6-diamino-1-(thiazolidin-2-cyano-3-y1)hexan-1-one amide (peptide)
peptide: B1 peptide
modifications: not checked
